In ChEMBL document CHEMBL3526116, “Toxicological evaluation of acyl glucuronides of nonsteroidal anti-inflammatory drugs using human embryonic kidney 293 cells stably expressing human UDP-glucuronosyltransferase and human hepatocytes” (Drug Metab Dispos, 2011) one finds Ratio data, which are given here for one compound.

The nature of this data set: Ratio of drug level in human hepatocytes to HEK293 cells expressing UGT1A3 treated with diclofenac at 0.1 mM. The conditions noted are these: 100 µM.

On to `O=C(Cc1ccccc1Nc1c(Cl)cccc1Cl)O[C@@H]1O[C@H](C(=O)O)[C@@H](O)[C@H](O)[C@H]1O`, for which the Ratio was 6.
